Test: Selectivity index, ratio of IC50 for human SGLT1 expressed in CHO cells to IC50 for human SGLT2 expressed in CHO cells
Assay type: cell-based

| Structure (SMILES) | Ratio IC50 |
| --- | --- |
| COc1ccc(Cc2cc([C@@H]3O[C@H](CO)[C@@H](O)[C@H](O)[C@H]3O)c3c(c2Cl)CCC3)cc1 | 55 |
| CC(C)c1ccc(Cc2cc([C@@H]3O[C@H](CO)[C@@H](O)[C@H](O)[C@H]3O)c3c(c2Cl)OCC3)cc1 | 6250 |
| COc1ccc(Cc2cc([C@@H]3O[C@H](CO)[C@@H](O)[C@H](O)[C@H]3O)c3c(c2Cl)OCCC3)cc1 | 37 |

— ChEMBL document CHEMBL5143532, “Discovery of GCC5694A: A potent and selective sodium glucose co-transporter 2 inhibitor for the treatment of type 2 diabetes” (Bioorg Med Chem Lett, 2022)
